Results on 1 compound are retold here after paper PMC7613929 (Nature microbiology, 2022).

Chains of the proteins cited; added tags and fusions are not shown. Residues count along the entry.
UniProt P0ABH0, 1-405: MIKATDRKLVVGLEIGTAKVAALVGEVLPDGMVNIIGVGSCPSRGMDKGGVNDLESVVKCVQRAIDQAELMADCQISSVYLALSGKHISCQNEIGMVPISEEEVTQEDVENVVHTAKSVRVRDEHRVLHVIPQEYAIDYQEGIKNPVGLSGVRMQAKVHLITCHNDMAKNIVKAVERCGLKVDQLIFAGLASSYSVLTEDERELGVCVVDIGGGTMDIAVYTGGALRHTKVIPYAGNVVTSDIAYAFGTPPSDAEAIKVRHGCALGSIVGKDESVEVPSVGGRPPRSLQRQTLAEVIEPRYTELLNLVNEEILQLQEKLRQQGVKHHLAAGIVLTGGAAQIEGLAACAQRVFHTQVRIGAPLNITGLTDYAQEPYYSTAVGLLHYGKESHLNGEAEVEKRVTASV

Molecules are shown by their SMILES.

The target of this assay is T1, FtsA (Escherichia coli, UniProt P0ABH0).
T1 construct: made in house; host or cells: E. coli C41(DE3)
Kind of assay: SPR, EcFtsN^1-32 truncations and mutations binding to immobilised FtsA. Conditions: SPR equilibrium response; peptide 1:2 dilution series from 20 μM; mean ± SEM (n ≥ 2 for each construct); asterisk: maximum response fixed during fitting, approximate values; ND: not determinable; read-out: SPR K^eqd. On the procedure: SPR was performed using a Biacore T200 using CM5-sensor chips (Cytiva). Reference control and analyte channels were equilibrated in binding buffer. […] After reference and buffer signal correction, sensogram data were fitted using Prism 8.0 (GraphPad). Equilibrium response (Req) data were fitted to a single-site interaction model to determine Kd: (1) Req=(CRmax/C+Kd)+B, where C is the analyte concentration and Rmax is the maximum response at saturation and B is the background resonance.
On the technique in general: In SPR one partner is held on a chip, and binding of the other changes the refractive index at the surface.

For the compound `CSCC[C@H](N)C(=O)N[C@@H](C)C(=O)N[C@@H](CCC(N)=O)C(=O)N[C@@H](CCCNC(=N)N)C(=O)N[C@@H](CC(=O)O)C(=O)N[C@@H](Cc1ccc(O)cc1)C(=O)N[C@H](C(=O)N[C@@H](C)C(=O)N[C@@H](C)C(=O)N[C@@H](CO)C(=O)N[C@@H](CCC(N)=O)C(=O)N1CCC[C@H]1C(=O)N[C@@H](C)C(=O)N1CCC[C@H]1C(=O)N[C@@H](CO)C(=O)N[C@@H](CCCNC(=N)N)C(=O)N[C@@H](CCCNC(=N)N)C(=O)N[C@@H](CCCCN)C(=O)N[C@@H](CCCCN)C(=O)N[C@@H](CO)C(=O)N[C@H](C(=O)N[C@@H](CO)C(=O)N[C@@H](CCCNC(=N)N)C(=O)N[C@@H](CCCCN)C(=O)N[C@@H](CCCCN)C(=O)N[C@@H](CCC(N)=O)C(=O)N[C@@H](CCCNC(=N)N)C(=O)N[C@@H](CC(N)=O)C(=O)N[C@@H](CC(C)C)C(=O)N1CCC[C@H]1C(=O)N[C@@H](C)C(=O)N[C@H](C(=O)O)C(C)C)[C@@H](C)O)C(C)C` [EcFtsN^1-32, ΔRK1], the Kd came out at 11.6 ± 0.8 µM.
